# Results reported in PubChem BioAssay AID434970 (Sanford-Burnham Center for Chemical Genomics, 2010).
# Only a part is listed here, and it is no random draw. The source made the active and inactive calls. No stated cut-off is given here; in the data, active means activity change below about -85%; inactive means the rest.
# Tested on: intestinal alkaline phosphatase [Mus musculus]
# Experiment: mouse intestinal phosphatase enzyme activation – biochemical, luminescence, single concentration, confirmation (AID 434970)
# Conditions: purified mouse IAP, CDP-Star luminescence, 30 min; at 10 µM; active compounds read low
row,Compound,"activity change, negative = activation"
1,C[N+]1=C2C=CC=CC=C2SC12C([N+](=O)[O-])=CC([N+](=O)[O-])=C[C-]2[N+](=O)[O-] (centres undefined),inactive: 74.9%
2,O=[N+]([O-])c1cc([N+](=O)[O-])c(-c2ccn[nH]2)s1,inactive: 68.5%
3,O=C(COc1ccccc1)OC1CN2CCC1CC2 (centres undefined),inactive: 14.2%
4,O=P1(Nc2ccccn2)COc2ccccc2OC1,inactive: -6.55%
